Drawing on paper PMC10295546, “Synthesis, Cytotoxicity and Molecular Docking of New Hybrid Compounds by Combination of Curcumin with Oleanolic Acid” (Biomedicines, 2023), this text covers IC50 for three compounds.

This assay relates to MCF7, HeLaWT and HT-29 cancer cells. Put plainly: MTT cell viability assay, range over the three cancer cell lines. The following applies: Homo sapiens, 24 h, read-out: IC50 value (24 h), range over cell lines. On the technique in general: Formazan colour is commonly taken as a measure of viable cells.
With `COc1cc(/C=C/c2cc(/C=C/c3ccc(OC(=O)CCC(=O)OC4CCC5(C)C(CCC6(C)C5CC=C5C7CC(C)(C)CCC7(C(=O)O)CCC56C)C4(C)C)c(OC)c3)on2)ccc1O` (stereo not drawn) [KS5, Curcumin isoxazole mono-oleanoyl hydrogen succinate], the IC50 (in general, the concentration that inhibits the measured activity by half) was 20.6 to 94.4 µM.
To `COc1cc(/C=C/c2cc(/C=C/c3ccc(OC(=O)CCC(=O)OC4CCC5(C)C(CCC6(C)C5CC=C5C7CC(C)(C)CCC7(C(=O)O)CCC56C)C4(C)C)c(OC)c3)[nH]n2)ccc1O` (stereo not drawn) [KS6, Curcumin pyrazole mono-oleanoyl hydrogen succinate] belongs 20.6 to 94.4 µM.
To `COC(=O)C12CCC(C)(C)CC1C1=CCC3C4(C)CCC(OC(=O)CCC(=O)Oc5ccc(/C=C/c6cc(/C=C/c7ccc(O)c(OC)c7)n[nH]6)cc5OC)C(C)(C)C4CCC3(C)C1(C)CC2` (stereo not drawn) [KS8, Curcumin pyrazole mono-oleanoyl hydrogen succinate methyl ester] belongs 20.6 to 94.4 µM.
